## Yeast mating assay 2: variants of the scFv Ab-95

Target peptide (SARS-CoV-2 spike, HR2 region): PDVDLGDISGINAS

Ab-95 is the parent antibody, in scFv form: VH, then a (GGGGS)3 linker, then VL. The heavy chain is unchanged in all variants.
VH: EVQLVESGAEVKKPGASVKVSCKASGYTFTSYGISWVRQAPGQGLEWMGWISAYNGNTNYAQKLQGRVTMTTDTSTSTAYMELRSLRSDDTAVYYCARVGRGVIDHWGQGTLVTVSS
VL: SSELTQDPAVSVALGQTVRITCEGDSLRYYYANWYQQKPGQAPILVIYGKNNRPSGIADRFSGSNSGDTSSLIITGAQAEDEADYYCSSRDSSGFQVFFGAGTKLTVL

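Variants in AAYL52 differ from the parent at up to three CDR positions; double and triple changes were sampled at random. Affinity was read by AlphaSeq, a pooled yeast mating assay with surface-displayed partners. Mating (16 h, 30 °C) was followed by selection of diploids and sequencing of their barcodes. Each replicate has its own calibration line, from reference interactions of the BCL2 family. Mating was done three times.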

Changes read parent residue, position, new residue, counted from the first residue of the VL shown.
The Kd shown is the geometric mean over detected replicates; a lower Kd is a better binder.
"no signal" means that the variant was in the library but no mating with the target was seen in any replicate; the authors take this as a sign of poor binding, and no number exists.
The list is sorted by this average, lowest first, undetected variants last.
As a blank, each scFv also met three strains without target: over library AAYL52, 28% of these pairings were detected, typically at 8.2 µM and seldom below 800 nM.

With E23M+Y31D+N51T the result was 18 nM (3 of 3 replicates).
With S26H+Y29A+Y30V the result was 33 nM (3 of 3 replicates).
With Y30A+N51R+S55M the result was 150 nM (3 of 3 replicates).
With D25L+Y30V the result was 230 nM (3 of 3 replicates).
With R28I+Y31L+S88V the result was 320 nM (3 of 3 replicates).
With Y31Q+R53P+F95T the result was 740 nM (3 of 3 replicates).
With L27E+Y31E+S92K the result was 770 nM (3 of 3 replicates).
With E23P+Y31R+R53A the result was 900 nM (1 of 3 replicates).
With N33K+S89T+R90A the result was 1.1 µM (1 of 3 replicates).
With R28E+D91T+F95D the result was 1.1 µM (3 of 3 replicates).
With S55T+R90I the result was 1.4 µM (3 of 3 replicates).
With Y29C+K50P the result was 1.7 µM (3 of 3 replicates).
With Y31R+A32T+N52W the result was 2.0 µM (3 of 3 replicates).
With L27T+V97D+F98V the result was 2.4 µM (3 of 3 replicates).
With G24M+A32G+N33R the result was 2.5 µM (1 of 3 replicates).
With R28S+R90W the result was 2.7 µM (1 of 3 replicates).
With A32F+S88C+D91W the result was 2.9 µM (2 of 3 replicates).
With Y30E+G49I+D91T the result was 3.4 µM (1 of 3 replicates).
With L27Y+R28D+N52C the result was 3.4 µM (2 of 3 replicates).
With Y31S+N33H+D91A the result was 4.0 µM (2 of 3 replicates).
With G49L+S88P+F98D the result was 4.1 µM (3 of 3 replicates).
With N52K+S92P+Q96G the result was 6.5 µM (1 of 3 replicates).
With A32I+R53Y+S55Q the result was 6.6 µM (3 of 3 replicates).
With Y31H+G49L+Q96H the result was 7.6 µM (1 of 3 replicates).
With R53G+G94P+F95G the result was 16 µM (3 of 3 replicates).
With S92G+V97E+F98C the result was 21 µM (3 of 3 replicates).
With N33Q+S93L+G94R the result was 28 µM (1 of 3 replicates).
With Y29K+N33Y+N52A the result was 29 µM (1 of 3 replicates).
With N33F+S92Q+Q96E the result was 59 µM (1 of 3 replicates).
With N33D+S92Y+Q96V the result was 79 µM (2 of 3 replicates).
With R28P+A32M+N52P the result was 82 µM (2 of 3 replicates).
With A32K+K50T+N52C the result was 310 µM (1 of 3 replicates).
With R28D+A32R+G49A the result was 440 µM (1 of 3 replicates).
With E23R+G94Q+Q96V the result was no signal (0 of 3 replicates).
With S26E+N33Y+N52R the result was no signal (0 of 3 replicates).
With N33E+G49W+P54S the result was no signal (0 of 3 replicates).
With R53W+D91L the result was no signal (0 of 3 replicates).

The 4 strongest on average among those seen in every replicate, once more:

changes	Kd	seen in
E23M+Y31D+N51T	18 nM	3/3
S26H+Y29A+Y30V	33 nM	3/3
Y30A+N51R+S55M	150 nM	3/3
D25L+Y30V	230 nM	3/3

The measurements come from Engelhart et al. 2022 (doi:10.1038/s41597-022-01779-4) through the FLAb antibody collection.